Data reported in patent publication US10196373B2, “Substituted 2-hydroxy-4-(2-(phenylsulfonamido)acetamido)benzoic acid analogs as inhibitors of STAT protein” (University of Central Florida Research Foundation, Inc., priority 2010, dated 2019).

Experiments:
[1] = tested on: OCI-AMI.2 cells; test: Cell viability, MTS assay; type: cell-based
[2] = tested on: HL60 cells; test: Cell viability, MTS assay; type: cell-based; conditions: Homo sapiens, HL-60, HL60, 72 hours
Protocol: To further test activity of these molecules, a whole-cell study involving cancer lines with known abherrant STAT3 expression was conducted. These human cell lines, including prostate cancer (DU145), breast cancer (MDA468), and promyelocytic leukemia (HL-60) were treated with the peptidomimetics and incubated for 72 hours. Disruption of cell viability was measured by MTS assay and IC50 values for the potential inhibitors was determined. OriginPro 8 (Northampton, Mass.) was used to evaluate EC50 using the dose response curve defined as follows:
[formula] where y is the fraction of death, x is the log of drug concentration. A2 is the top asymptote, A1 is the bottom asymptote, logx0 is the center of the curve, and p is the hill slope.

## CN(CC(=O)N(Cc1ccc(C2CCCCC2)cc1)c1ccc(C(=O)O)c(O)c1)S(=O)(=O)c1c(F)c(F)c(F)c(F)c1F [Compound 45O, 4-(N-(4-cyclohexylbenzyl)-2-(2,3,4,5,6-pentafluoro-N-methylphenylsulfonamido)acetamido)-2-hydroxybenzoic acid]
[1]
  IC50: 10.5 ± 6.2 µM
[2]
  IC50: 10.4 ± 1.6 µM
